Reference: patent US20140100156A1 (SANOFI, priority 2012, published 2014)

Chains of the proteins cited; added tags and fusions are not shown. Residues count along the entry.
UniProt P43220, 24-463: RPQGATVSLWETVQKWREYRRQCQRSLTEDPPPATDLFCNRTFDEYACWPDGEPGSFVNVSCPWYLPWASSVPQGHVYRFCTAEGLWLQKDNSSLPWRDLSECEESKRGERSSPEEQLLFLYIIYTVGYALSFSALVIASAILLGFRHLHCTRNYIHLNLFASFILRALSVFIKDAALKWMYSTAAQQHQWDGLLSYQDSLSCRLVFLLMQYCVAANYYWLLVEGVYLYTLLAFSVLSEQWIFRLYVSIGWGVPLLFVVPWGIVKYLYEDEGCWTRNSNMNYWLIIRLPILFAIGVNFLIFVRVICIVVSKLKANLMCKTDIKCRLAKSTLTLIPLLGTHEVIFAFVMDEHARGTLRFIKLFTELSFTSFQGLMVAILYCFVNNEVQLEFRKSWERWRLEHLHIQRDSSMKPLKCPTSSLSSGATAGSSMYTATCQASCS
UniProt P47871, 26-477: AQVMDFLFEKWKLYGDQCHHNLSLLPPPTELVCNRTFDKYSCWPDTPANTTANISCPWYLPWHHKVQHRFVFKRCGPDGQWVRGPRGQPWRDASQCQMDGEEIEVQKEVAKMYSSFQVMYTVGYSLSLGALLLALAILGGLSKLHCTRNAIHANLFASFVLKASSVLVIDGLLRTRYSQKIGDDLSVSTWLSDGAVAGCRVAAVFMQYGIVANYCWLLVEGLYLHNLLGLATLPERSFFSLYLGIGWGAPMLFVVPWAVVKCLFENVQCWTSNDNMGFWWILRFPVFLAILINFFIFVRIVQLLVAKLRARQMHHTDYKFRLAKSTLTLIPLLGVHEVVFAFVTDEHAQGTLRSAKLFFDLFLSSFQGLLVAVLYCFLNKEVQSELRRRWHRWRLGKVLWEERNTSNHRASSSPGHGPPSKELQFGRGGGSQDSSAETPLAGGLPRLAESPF

Legend:
human GLP-1 receptor = biological target: T1, human GLP-1 receptor (Homo sapiens, UniProt P43220); assay: cAMP response (HTRF) of HEK-293 cells stably expressing human GLP-1 receptor; assay type: cell-based; settings: Table 5; cAMP, HEK-293; read-out: EC50 hGLP-1R
T1 construct: expressed in transfected cells; host or cells: HEK-293

human glucagon receptor = biological target: T2, human glucagon receptor (Homo sapiens, UniProt P47871); assay: cAMP response (HTRF) of HEK-293 cells stably expressing human glucagon receptor; assay type: cell-based; settings: Table 5; cAMP, HEK-293; read-out: EC50 hGlucagon-R
T2 construct: expressed in transfected cells; host or cells: HEK-293

Structure (SMILES) | pEC50 (human GLP-1 receptor) | pEC50 (human glucagon receptor)
CCCCCCCCCCCCCCCC(=O)NCCCC[C@H](NC(=O)[C@H](CCC(N)=O)NC(=O)[C@H](CCCCN)NC(=O)[C@H](CO)NC(=O)[C@H](CC(C)C)NC(=O)[C@H](CC(=O)O)NC(=O)[C@H](CO)NC(=O)[C@@H](NC(=O)[C@H](Cc1ccccc1)NC(=O)[C@@H](NC(=O)CNC(=O)[C@H](CCC(N)=O)NC(=O)[C@@H](CO)NC(=O)[C@@H](N)Cc1c[nH]cn1)[C@@H](C)O)[C@@H](C)O)C(=O)N[C@@H](CCC(=O)O)C(=O)N[C@@H](CO)C(=O)N[C@@H](CCCCN)C(=O)N[C@@H](C)C(=O)N[C@@H](C)C(=O)N[C@@H](CCC(N)=O)C(=O)N[C@@H](CC(=O)O)C(=O)N[C@@H](Cc1ccccc1)C(=O)N[C@H](C(=O)N[C@@H](CCC(=O)O)C(=O)N[C@@H](Cc1c[nH]c2ccccc12)C(=O)N[C@@H](CC(C)C)C(=O)N[C@@H](CCCCN)C(=O)N[C@@H](C)C(=O)NCC(=O)NCC(=O)N1CCC[C@H]1C(=O)N[C@@H](CO)C(=O)N[C@@H](CO)C(=O)NCC(=O)N[C@@H](C)C(=O)N1CCC[C@H]1C(=O)N1CCC[C@H]1C(=O)N1CCC[C@H]1C(=O)N[C@@H](CO)C(N)=O)[C@@H](C)CC [compound 32] | 10.99 | 9.73
CCCCCCCCCCCCCCCC(=O)NCCCC[C@H](NC(=O)[C@H](CCC(N)=O)NC(=O)[C@H](CCCCN)NC(=O)[C@H](CO)NC(=O)[C@H](CC(C)C)NC(=O)[C@H](CC(=O)O)NC(=O)[C@H](CO)NC(=O)[C@@H](NC(=O)[C@H](Cc1ccccc1)NC(=O)[C@@H](NC(=O)CNC(=O)[C@H](CCC(N)=O)NC(=O)C(C)(C)NC(=O)[C@@H](N)Cc1c[nH]cn1)[C@@H](C)O)[C@@H](C)O)C(=O)N[C@@H](CCC(=O)O)C(=O)N[C@@H](CO)C(=O)N[C@@H](CCCCN)C(=O)N[C@@H](C)C(=O)N[C@@H](C)C(=O)N[C@@H](CCC(N)=O)C(=O)N[C@@H](CC(=O)O)C(=O)N[C@@H](Cc1ccccc1)C(=O)N[C@H](C(=O)N[C@@H](CCC(=O)O)C(=O)N[C@@H](Cc1c[nH]c2ccccc12)C(=O)N[C@@H](CC(C)C)C(=O)N[C@@H](CCCCN)C(=O)N[C@@H](C)C(=O)NCC(=O)NCC(=O)N1CCC[C@H]1C(=O)N[C@@H](CO)C(=O)N[C@@H](CO)C(=O)NCC(=O)N[C@@H](C)C(=O)N1CCC[C@H]1C(=O)N1CCC[C@H]1C(=O)N1CCC[C@H]1C(=O)N[C@@H](CO)C(N)=O)[C@@H](C)CC [compound 33] | 10.95 | 9.33
CCCCCCCCCCCCCCCC(=O)N[C@@H](CCC(=O)NCCCC[C@H](NC(=O)[C@H](CCC(N)=O)NC(=O)[C@H](CCCCN)NC(=O)[C@H](CO)NC(=O)[C@H](CC(C)C)NC(=O)[C@H](CC(=O)O)NC(=O)[C@H](CO)NC(=O)[C@@H](NC(=O)[C@H](Cc1ccccc1)NC(=O)[C@@H](NC(=O)CNC(=O)[C@H](CCC(N)=O)NC(=O)[C@@H](CO)NC(=O)[C@@H](N)Cc1c[nH]cn1)[C@@H](C)O)[C@@H](C)O)C(=O)N[C@@H](CC(=O)O)C(=O)N[C@@H](CCC(=O)O)C(=O)N[C@@H](CCC(N)=O)C(=O)N[C@@H](C)C(=O)N[C@@H](C)C(=O)N[C@@H](CCC(N)=O)C(=O)N[C@@H](CC(=O)O)C(=O)N[C@@H](Cc1ccccc1)C(=O)N[C@H](C(=O)N[C@@H](CCC(=O)O)C(=O)N[C@@H](Cc1c[nH]c2ccccc12)C(=O)N[C@@H](CC(C)C)C(=O)N[C@@H](CCCCN)C(=O)N[C@@H](C)C(=O)NCC(=O)NCC(=O)N1CCC[C@H]1C(=O)N[C@@H](CO)C(=O)N[C@@H](CO)C(=O)NCC(=O)N[C@@H](C)C(=O)N1CCC[C@H]1C(=O)N1CCC[C@H]1C(=O)N1CCC[C@H]1C(=O)N[C@@H](CO)C(N)=O)[C@@H](C)CC)C(=O)O [compound 34] | 11.82 | 11.17
CCCCCCCCCCCCCCCC(=O)N[C@@H](CCC(=O)NCCCC[C@H](NC(=O)[C@H](CCC(N)=O)NC(=O)[C@H](CCCCN)NC(=O)[C@H](CO)NC(=O)[C@H](CC(C)C)NC(=O)[C@H](CC(=O)O)NC(=O)[C@H](CO)NC(=O)[C@@H](NC(=O)[C@H](Cc1ccccc1)NC(=O)[C@@H](NC(=O)CNC(=O)[C@H](CCC(N)=O)NC(=O)[C@@H](CO)NC(=O)[C@@H](N)Cc1c[nH]cn1)[C@@H](C)O)[C@@H](C)O)C(=O)N[C@@H](CCC(=O)O)C(=O)N[C@@H](CO)C(=O)N[C@@H](CCC(N)=O)C(=O)N[C@@H](C)C(=O)N[C@@H](C)C(=O)N[C@@H](CCC(N)=O)C(=O)N[C@@H](CCC(=O)O)C(=O)N[C@@H](Cc1ccccc1)C(=O)N[C@H](C(=O)N[C@@H](CCC(=O)O)C(=O)N[C@@H](Cc1c[nH]c2ccccc12)C(=O)N[C@@H](CC(C)C)C(=O)N[C@@H](CCCCN)C(=O)N[C@@H](C)C(=O)NCC(=O)NCC(=O)N1CCC[C@H]1C(=O)N[C@@H](CO)C(=O)N[C@@H](CO)C(=O)NCC(=O)N[C@@H](C)C(=O)N1CCC[C@H]1C(=O)N1CCC[C@H]1C(=O)N1CCC[C@H]1C(=O)N[C@@H](CO)C(N)=O)[C@@H](C)CC)C(=O)O [compound 37] | 11.82 | 10.89
CCCCCCCCCCCCCCCC(=O)N[C@@H](CCC(=O)NCCCC[C@H](NC(=O)[C@H](CCC(N)=O)NC(=O)[C@H](CCCCN)NC(=O)[C@H](CO)NC(=O)[C@H](CC(C)C)NC(=O)[C@H](CC(=O)O)NC(=O)[C@H](CO)NC(=O)[C@@H](NC(=O)[C@H](Cc1ccccc1)NC(=O)[C@@H](NC(=O)CNC(=O)[C@H](CCC(N)=O)NC(=O)C(C)(C)NC(=O)[C@@H](N)Cc1c[nH]cn1)[C@@H](C)O)[C@@H](C)O)C(=O)N[C@@H](CCC(=O)O)C(=O)N[C@@H](CO)C(=O)N[C@@H](CCC(N)=O)C(=O)N[C@@H](C)C(=O)N[C@@H](C)C(=O)N[C@@H](CCC(N)=O)C(=O)N[C@@H](CCC(=O)O)C(=O)N[C@@H](Cc1ccccc1)C(=O)N[C@H](C(=O)N[C@@H](CCC(=O)O)C(=O)N[C@@H](Cc1c[nH]c2ccccc12)C(=O)N[C@@H](CC(C)C)C(=O)N[C@@H](CCCCN)C(=O)N[C@@H](C)C(=O)NCC(=O)NCC(=O)N1CCC[C@H]1C(=O)N[C@@H](CO)C(=O)N[C@@H](CO)C(=O)NCC(=O)N[C@@H](C)C(=O)N1CCC[C@H]1C(=O)N1CCC[C@H]1C(=O)N1CCC[C@H]1C(=O)N[C@@H](CO)C(N)=O)[C@@H](C)CC)C(=O)O [compound 38] | 11.54 | 10.27
CCCCCCCCCCCCCCCC(=O)N[C@@H](CCC(=O)NCCCC[C@H](NC(=O)[C@H](CCC(N)=O)NC(=O)[C@H](CCCCN)NC(=O)[C@H](CO)NC(=O)[C@H](CC(C)C)NC(=O)[C@H](CC(=O)O)NC(=O)[C@H](CO)NC(=O)[C@@H](NC(=O)[C@H](Cc1ccccc1)NC(=O)[C@@H](NC(=O)CNC(=O)[C@H](CCC(N)=O)NC(=O)[C@@H](CO)NC(=O)[C@@H](N)Cc1c[nH]cn1)[C@@H](C)O)[C@@H](C)O)C(=O)N[C@@H](CC(=O)O)C(=O)N[C@@H](CO)C(=O)N[C@@H](CCC(N)=O)C(=O)N[C@@H](C)C(=O)N[C@@H](C)C(=O)N[C@@H](CCC(N)=O)C(=O)N[C@@H](CC(=O)O)C(=O)N[C@@H](Cc1ccccc1)C(=O)N[C@H](C(=O)N[C@@H](CCC(=O)O)C(=O)N[C@@H](Cc1c[nH]c2ccccc12)C(=O)N[C@@H](CC(C)C)C(=O)N[C@@H](CCCCN)C(=O)N[C@@H](C)C(=O)NCC(=O)NCC(=O)N1CCC[C@H]1C(=O)N[C@@H](CO)C(=O)N[C@@H](CO)C(=O)NCC(=O)N[C@@H](C)C(=O)N1CCC[C@H]1C(=O)N1CCC[C@H]1C(=O)N1CCC[C@H]1C(=O)N[C@@H](CO)C(N)=O)[C@@H](C)CC)C(=O)O [compound 39] | 11.57 | 11.12
CCCCCCCCCCCCCCCCCC(=O)N[C@@H](CCC(=O)NCCCC[C@H](NC(=O)[C@H](CCC(N)=O)NC(=O)[C@H](CCCCN)NC(=O)[C@H](CO)NC(=O)[C@H](CC(C)C)NC(=O)[C@H](CC(=O)O)NC(=O)[C@H](CO)NC(=O)[C@@H](NC(=O)[C@H](Cc1ccccc1)NC(=O)[C@@H](NC(=O)CNC(=O)[C@H](CCC(N)=O)NC(=O)[C@@H](CO)NC(=O)[C@@H](N)Cc1c[nH]cn1)[C@@H](C)O)[C@@H](C)O)C(=O)N[C@@H](CCC(=O)O)C(=O)N[C@@H](CO)C(=O)N[C@@H](CCC(N)=O)C(=O)N[C@@H](C)C(=O)N[C@@H](C)C(=O)N[C@@H](CCC(N)=O)C(=O)N[C@@H](CC(=O)O)C(=O)N[C@@H](Cc1ccccc1)C(=O)N[C@H](C(=O)N[C@@H](CCC(=O)O)C(=O)N[C@@H](Cc1c[nH]c2ccccc12)C(=O)N[C@@H](CC(C)C)C(=O)N[C@@H](CCCCN)C(=O)N[C@@H](C)C(=O)NCC(=O)NCC(=O)N1CCC[C@H]1C(=O)N[C@@H](CO)C(=O)N[C@@H](CO)C(=O)NCC(=O)N[C@@H](C)C(=O)N1CCC[C@H]1C(=O)N1CCC[C@H]1C(=O)N1CCC[C@H]1C(=O)N[C@@H](CO)C(N)=O)[C@@H](C)CC)C(=O)O [compound 40] | 11.59 | 11.32
CCCCCCCCCCCCCCCCCC(=O)N[C@@H](CCC(=O)NCCCC[C@H](NC(=O)[C@H](CCC(N)=O)NC(=O)[C@H](CCCCN)NC(=O)[C@H](CO)NC(=O)[C@H](CC(C)C)NC(=O)[C@H](CC(=O)O)NC(=O)[C@H](CO)NC(=O)[C@@H](NC(=O)[C@H](Cc1ccccc1)NC(=O)[C@@H](NC(=O)CNC(=O)[C@H](CCC(N)=O)NC(=O)C(C)(C)NC(=O)[C@@H](N)Cc1c[nH]cn1)[C@@H](C)O)[C@@H](C)O)C(=O)N[C@@H](CCC(=O)O)C(=O)N[C@@H](CO)C(=O)N[C@@H](CCC(N)=O)C(=O)N[C@@H](C)C(=O)N[C@@H](C)C(=O)N[C@@H](CCC(N)=O)C(=O)N[C@@H](CC(=O)O)C(=O)N[C@@H](Cc1ccccc1)C(=O)N[C@H](C(=O)N[C@@H](CCC(=O)O)C(=O)N[C@@H](Cc1c[nH]c2ccccc12)C(=O)N[C@@H](CC(C)C)C(=O)N[C@@H](CCCCN)C(=O)N[C@@H](C)C(=O)NCC(=O)NCC(=O)N1CCC[C@H]1C(=O)N[C@@H](CO)C(=O)N[C@@H](CO)C(=O)NCC(=O)N[C@@H](C)C(=O)N1CCC[C@H]1C(=O)N1CCC[C@H]1C(=O)N1CCC[C@H]1C(=O)N[C@@H](CO)C(N)=O)[C@@H](C)CC)C(=O)O [compound 41] | 11.48 | 10.68

pEC50: −log10 of the molar value.
